The values below come from patent US5486595A, “Tumor necrosis factor inhibitors” (Centecor, Inc., priority 1994, dated 1996).

Amino acid sequences for entries named in this document (tags omitted). Residues count along the entry.
UniProt P01375, 77-233 limits assumed: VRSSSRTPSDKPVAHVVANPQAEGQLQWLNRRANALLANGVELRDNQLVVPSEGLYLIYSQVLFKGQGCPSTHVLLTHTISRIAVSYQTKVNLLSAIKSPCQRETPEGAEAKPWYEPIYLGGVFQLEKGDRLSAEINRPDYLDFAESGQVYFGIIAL

Where only a bound is given, the exact number is not on record here.

For the experiment, the target named is T1, human TNFα (Homo sapiens, UniProt P01375).
T1 construct: purchased Biosource, Camarillo, Calif
The experiment in a line: p55 Receptor/IgG Fusion Protein Binding Assay (inhibition of TNFα capture by p55-Ig coated plate). Conditions: positive control, cA2 Fab 500 ng/ml; typical value. Here is the method: In order to screen compounds for their ability to block TNFα binding to the TNF p55 receptor, an assay has been designed using TNFα and a p55/IgG fusion protein in place of monovalent, non-fusion p55 TNF receptor protein. This assay was designed to identify peptides which bind to human TNFα and thereby prevent the capture of the TNFα by a microtiter plate coated with p55-Ig fusion protein. A constant concentration of human TNFα is preincubated with the test peptide and then incubated on the p55-Ig coated microtiter wells. Bound TNFα is detected using a specific antisera and an alkaline phosphatase-conjugated probe. An active peptide will reduce the amount of human TNFα bound to the well relative to control wells in which TNFα but no peptide was added. […]
To detect TNFα captured by the p55-Ig plate, all wells were incubated in succession with polyclonal rabbit anti-human TNFα (Genzyme, Boston, Mass.; 1:500 in assay buffer, 50 μl/well), biotinylated goat anti-rabbit Ig (H&L) (Vector Laboratories, Burlingame, Calif.; 1 μg/ml in assay buffer, 50 μl/well) and streptavidin-alkaline phosphatase conjugate (Pierce, Rockford, Ill.; 1 μg/ml in assay buffer, 50 μl/well). […] The optical density (OD) at 405 nm was measured on a microtiter plate reader (Molecular Devices Vmax plate reader), with the plate blank wells subtracted as background. […]

For the substance “cA2 Fab: Fab fragment of the mouse/human monoclonal anti-human TNFα antibody cA2 (positive control) [reference compound]”, the “inhibition of TNFα capture by the p55-Ig plate” value is not below 75%.
